Laboratory results taken from publication PMC12142581.
Values after ≈ are worked out from the molar mass of the structure shown. Like-named read-outs stand apart in the source and are kept apart here.

Chains of the proteins cited; added tags and fusions are not shown. Lines headed by an entry give the natural chain unless they say otherwise; changes in a name come on top. Residues count along the entry.
UniProt P10632, whole entry, looked up: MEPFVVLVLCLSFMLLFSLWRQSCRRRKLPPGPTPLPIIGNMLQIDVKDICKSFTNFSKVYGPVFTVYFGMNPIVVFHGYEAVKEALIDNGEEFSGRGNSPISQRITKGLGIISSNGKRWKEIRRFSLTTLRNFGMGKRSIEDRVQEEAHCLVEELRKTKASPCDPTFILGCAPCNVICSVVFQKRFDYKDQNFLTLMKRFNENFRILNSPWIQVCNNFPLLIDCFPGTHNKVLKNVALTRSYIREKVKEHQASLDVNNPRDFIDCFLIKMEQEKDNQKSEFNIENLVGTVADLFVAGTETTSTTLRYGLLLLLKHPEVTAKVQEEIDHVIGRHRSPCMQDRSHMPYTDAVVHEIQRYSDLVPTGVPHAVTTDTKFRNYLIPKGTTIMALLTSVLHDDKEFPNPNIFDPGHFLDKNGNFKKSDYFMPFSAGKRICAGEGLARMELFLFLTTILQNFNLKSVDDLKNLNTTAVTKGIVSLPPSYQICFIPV
UniProt P10635, whole entry, looked up: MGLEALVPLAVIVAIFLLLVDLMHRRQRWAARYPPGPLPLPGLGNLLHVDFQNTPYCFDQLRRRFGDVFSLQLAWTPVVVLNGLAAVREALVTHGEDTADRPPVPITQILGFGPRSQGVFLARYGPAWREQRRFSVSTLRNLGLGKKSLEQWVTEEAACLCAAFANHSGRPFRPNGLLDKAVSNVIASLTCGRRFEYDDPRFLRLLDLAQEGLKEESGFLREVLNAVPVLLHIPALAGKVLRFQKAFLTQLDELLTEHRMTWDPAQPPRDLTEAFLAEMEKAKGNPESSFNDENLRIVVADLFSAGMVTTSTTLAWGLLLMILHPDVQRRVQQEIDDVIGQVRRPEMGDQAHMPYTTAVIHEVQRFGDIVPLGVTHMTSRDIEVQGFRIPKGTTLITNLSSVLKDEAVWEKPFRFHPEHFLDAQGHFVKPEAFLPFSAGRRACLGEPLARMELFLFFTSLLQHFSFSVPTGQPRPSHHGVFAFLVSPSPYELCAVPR
UniProt P08684, whole entry, looked up: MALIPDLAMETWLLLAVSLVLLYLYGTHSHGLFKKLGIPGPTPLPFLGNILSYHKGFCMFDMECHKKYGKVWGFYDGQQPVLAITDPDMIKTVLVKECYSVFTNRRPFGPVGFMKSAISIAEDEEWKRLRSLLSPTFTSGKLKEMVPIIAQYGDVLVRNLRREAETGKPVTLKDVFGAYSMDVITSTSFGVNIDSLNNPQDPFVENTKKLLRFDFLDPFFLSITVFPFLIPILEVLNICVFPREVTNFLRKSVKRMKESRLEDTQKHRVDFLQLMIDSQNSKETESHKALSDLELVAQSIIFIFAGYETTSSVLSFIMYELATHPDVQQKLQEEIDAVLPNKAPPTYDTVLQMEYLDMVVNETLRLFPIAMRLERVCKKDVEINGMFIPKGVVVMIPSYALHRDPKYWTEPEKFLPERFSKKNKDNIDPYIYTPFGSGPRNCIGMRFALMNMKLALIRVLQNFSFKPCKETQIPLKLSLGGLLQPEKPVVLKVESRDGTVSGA
UniProt P05177, whole entry, looked up: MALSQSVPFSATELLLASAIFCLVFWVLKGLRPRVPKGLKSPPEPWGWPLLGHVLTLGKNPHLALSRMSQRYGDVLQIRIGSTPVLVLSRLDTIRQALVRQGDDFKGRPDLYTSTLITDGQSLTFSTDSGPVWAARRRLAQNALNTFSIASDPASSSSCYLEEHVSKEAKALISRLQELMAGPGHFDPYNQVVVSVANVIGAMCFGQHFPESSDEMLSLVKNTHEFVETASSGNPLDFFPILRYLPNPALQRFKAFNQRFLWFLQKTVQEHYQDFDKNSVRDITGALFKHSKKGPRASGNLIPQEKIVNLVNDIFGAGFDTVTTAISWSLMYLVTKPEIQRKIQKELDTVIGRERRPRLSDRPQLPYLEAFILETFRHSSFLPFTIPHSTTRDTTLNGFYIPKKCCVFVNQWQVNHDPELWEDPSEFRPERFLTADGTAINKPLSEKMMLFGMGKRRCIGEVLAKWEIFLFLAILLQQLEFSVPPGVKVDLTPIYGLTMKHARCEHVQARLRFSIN
UniProt P33261, whole entry, looked up: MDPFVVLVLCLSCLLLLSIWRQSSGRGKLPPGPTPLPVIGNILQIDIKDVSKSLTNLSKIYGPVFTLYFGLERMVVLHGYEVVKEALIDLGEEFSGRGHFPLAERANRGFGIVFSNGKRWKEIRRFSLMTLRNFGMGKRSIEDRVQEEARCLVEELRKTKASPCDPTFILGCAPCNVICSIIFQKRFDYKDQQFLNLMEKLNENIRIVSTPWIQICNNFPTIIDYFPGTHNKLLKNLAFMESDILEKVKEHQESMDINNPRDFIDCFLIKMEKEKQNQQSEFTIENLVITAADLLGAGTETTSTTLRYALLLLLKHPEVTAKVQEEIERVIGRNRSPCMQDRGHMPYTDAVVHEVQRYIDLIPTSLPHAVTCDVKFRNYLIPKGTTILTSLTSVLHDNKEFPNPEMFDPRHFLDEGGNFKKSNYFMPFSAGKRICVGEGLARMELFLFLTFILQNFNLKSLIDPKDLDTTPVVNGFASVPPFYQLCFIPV
UniProt P08482: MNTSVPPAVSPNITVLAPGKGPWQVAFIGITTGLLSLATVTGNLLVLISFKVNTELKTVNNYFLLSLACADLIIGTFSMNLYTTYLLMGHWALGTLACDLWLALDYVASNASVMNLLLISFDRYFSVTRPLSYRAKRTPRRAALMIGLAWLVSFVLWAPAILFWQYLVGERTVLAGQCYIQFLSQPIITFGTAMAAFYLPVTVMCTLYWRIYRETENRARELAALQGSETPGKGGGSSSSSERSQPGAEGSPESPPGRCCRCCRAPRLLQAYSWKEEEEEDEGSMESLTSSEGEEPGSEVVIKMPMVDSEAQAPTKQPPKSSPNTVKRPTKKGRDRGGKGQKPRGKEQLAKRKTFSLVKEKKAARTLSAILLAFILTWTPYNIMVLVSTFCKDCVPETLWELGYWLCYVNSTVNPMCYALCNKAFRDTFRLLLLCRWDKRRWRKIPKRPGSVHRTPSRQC
UniProt P08911, whole entry, looked up: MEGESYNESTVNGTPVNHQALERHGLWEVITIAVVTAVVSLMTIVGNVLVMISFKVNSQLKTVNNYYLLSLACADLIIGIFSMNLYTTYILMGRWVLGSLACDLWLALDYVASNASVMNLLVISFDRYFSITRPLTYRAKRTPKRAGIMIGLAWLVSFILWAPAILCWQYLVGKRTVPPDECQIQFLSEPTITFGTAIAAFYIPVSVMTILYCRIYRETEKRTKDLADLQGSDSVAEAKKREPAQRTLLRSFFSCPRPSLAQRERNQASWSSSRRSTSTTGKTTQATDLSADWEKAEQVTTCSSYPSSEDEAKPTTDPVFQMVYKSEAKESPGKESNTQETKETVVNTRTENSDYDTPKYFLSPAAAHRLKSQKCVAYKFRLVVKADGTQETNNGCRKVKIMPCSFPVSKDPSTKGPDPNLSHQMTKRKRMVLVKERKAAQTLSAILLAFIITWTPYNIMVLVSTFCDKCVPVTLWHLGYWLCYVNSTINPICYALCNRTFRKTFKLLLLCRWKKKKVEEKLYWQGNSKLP
UniProt A0A8I3N4M6, 1-466: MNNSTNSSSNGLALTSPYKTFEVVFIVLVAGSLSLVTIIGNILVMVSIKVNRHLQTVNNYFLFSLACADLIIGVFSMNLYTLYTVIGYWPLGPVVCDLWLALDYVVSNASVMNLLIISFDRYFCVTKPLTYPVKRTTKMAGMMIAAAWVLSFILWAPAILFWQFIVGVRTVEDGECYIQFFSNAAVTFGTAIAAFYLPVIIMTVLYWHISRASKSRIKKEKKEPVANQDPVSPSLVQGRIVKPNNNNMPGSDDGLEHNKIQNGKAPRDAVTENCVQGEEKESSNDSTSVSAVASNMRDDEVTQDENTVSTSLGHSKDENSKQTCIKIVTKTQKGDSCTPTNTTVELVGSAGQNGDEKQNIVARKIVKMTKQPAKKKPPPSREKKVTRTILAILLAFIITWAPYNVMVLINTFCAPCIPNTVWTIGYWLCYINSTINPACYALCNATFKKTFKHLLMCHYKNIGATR
UniProt A0A8I3Q4F7, 1-478: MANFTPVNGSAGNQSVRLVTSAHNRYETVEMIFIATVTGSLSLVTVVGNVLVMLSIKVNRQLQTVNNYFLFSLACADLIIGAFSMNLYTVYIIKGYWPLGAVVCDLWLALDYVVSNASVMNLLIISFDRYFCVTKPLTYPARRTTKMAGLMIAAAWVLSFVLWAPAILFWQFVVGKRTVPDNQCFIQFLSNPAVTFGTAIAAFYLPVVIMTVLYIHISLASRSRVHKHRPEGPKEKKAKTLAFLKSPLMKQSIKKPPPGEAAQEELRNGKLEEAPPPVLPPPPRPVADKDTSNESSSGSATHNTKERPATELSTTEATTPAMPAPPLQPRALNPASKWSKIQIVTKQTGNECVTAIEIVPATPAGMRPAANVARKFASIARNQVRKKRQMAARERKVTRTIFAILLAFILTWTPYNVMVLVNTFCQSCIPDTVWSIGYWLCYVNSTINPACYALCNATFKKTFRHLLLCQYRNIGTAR
UniProt P11229: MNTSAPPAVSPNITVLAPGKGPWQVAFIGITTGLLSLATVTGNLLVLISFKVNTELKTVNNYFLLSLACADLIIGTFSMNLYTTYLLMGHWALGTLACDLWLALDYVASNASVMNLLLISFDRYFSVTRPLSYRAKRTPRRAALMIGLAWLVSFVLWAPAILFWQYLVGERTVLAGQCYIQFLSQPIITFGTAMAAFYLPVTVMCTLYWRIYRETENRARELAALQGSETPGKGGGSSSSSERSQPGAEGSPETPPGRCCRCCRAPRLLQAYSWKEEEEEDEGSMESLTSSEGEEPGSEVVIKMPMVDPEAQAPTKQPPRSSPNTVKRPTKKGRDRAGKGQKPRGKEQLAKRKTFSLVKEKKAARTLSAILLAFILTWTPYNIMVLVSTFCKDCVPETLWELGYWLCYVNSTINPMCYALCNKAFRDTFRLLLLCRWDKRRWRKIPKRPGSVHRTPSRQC
UniProt P08485, whole entry, looked up: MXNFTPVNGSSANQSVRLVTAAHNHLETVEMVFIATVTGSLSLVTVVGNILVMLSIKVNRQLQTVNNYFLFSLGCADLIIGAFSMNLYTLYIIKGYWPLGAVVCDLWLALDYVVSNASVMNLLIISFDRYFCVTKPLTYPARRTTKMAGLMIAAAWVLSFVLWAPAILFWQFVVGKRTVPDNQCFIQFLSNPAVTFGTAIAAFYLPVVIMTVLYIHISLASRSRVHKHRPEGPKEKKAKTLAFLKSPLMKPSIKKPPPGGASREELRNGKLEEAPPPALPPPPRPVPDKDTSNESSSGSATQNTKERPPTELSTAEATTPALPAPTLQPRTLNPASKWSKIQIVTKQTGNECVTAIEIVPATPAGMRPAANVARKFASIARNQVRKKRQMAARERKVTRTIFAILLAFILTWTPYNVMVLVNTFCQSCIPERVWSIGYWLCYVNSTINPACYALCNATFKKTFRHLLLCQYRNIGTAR
UniProt P08483, whole entry, looked up: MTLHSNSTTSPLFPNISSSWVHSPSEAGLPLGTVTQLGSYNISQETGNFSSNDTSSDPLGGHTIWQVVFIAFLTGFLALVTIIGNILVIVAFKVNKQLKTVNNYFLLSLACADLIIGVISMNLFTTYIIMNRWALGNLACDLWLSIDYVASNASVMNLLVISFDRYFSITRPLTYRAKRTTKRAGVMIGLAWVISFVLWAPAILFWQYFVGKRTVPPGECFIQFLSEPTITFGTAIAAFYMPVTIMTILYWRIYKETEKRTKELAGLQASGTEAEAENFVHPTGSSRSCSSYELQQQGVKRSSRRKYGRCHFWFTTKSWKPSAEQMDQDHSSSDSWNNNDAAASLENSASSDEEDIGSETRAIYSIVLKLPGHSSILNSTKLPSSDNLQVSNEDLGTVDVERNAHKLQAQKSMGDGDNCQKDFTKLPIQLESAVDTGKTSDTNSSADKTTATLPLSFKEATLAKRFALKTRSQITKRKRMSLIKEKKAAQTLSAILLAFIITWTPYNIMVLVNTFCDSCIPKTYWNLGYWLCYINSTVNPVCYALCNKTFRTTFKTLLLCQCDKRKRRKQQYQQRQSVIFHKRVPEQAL
UniProt P08912, whole entry, looked up: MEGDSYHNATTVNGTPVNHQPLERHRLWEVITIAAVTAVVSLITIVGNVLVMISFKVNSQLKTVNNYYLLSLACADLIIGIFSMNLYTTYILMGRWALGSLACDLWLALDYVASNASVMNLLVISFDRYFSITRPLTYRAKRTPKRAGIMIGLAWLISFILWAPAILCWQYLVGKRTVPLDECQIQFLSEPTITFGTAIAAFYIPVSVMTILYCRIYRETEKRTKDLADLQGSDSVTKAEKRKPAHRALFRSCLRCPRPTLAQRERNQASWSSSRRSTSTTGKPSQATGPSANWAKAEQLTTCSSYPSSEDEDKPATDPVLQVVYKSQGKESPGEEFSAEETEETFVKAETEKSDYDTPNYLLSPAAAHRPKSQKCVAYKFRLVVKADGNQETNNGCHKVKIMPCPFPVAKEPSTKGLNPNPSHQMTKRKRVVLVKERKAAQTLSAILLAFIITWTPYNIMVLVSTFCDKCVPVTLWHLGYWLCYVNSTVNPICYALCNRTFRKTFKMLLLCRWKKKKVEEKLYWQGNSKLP

Assays:
cytochrome P450 enzymes = test: Cytochrome P450 inhibition (direct and time-dependent), pooled human liver microsomes; conditions: read-out: CYP inhibition IC50's; all CYPs tested
[1] = Metabolic stability in intestinal microsomes; conditions: 0.5 µM, 60 min
[2] = Multi-species hepatocyte MetID; conditions: 10 µM parent, 4 h
CYP2C8 = CYP2C8 (Homo sapiens, UniProt P10632); test: Cytochrome P450 inhibition, pooled human liver microsomes
CYP2D6 = CYP2D6 (Homo sapiens, UniProt P10635); test: as above; conditions: read-out: CYP2D6 IC50; direct inhibition
CYP2B6 = CYP2B6 (Homo sapiens, UniProt P20813); test: as above; conditions: read-out: CYP2B6 IC50; direct inhibition
CYP3A4 = CYP3A4 (Homo sapiens, UniProt P08684); test: as above
CYP2C9 = CYP2C9 (Homo sapiens, UniProt P11712); test: as above
CYP1A2 = CYP1A2 (Homo sapiens, UniProt P05177); test: as above; conditions: read-out: CYP1A2 IC50; direct inhibition
CYP2C19 = CYP2C19 (Homo sapiens, UniProt P33261); test: as above
dog M3 = test: Calcium mobilization assay, CHO cells, EC20 acetylcholine
rat M1 = rat M1 (Rattus norvegicus, UniProt P08482); test: as above
human M2 = human M2 (Homo sapiens, UniProt P08172); test: as above
minipig M4 = minipig M4 (Sus scrofa, UniProt F1SIA0); test: as above
rat M5 = rat M5 (Rattus norvegicus, UniProt P08911); test: as above
dog M2 = dog M2 (Canis lupus familiaris, UniProt A0A8I3N4M6); test: as above
dog M4 = dog M4 (Canis lupus familiaris, UniProt A0A8I3Q4F7); test: as above
human M1 = human M1 (Homo sapiens, UniProt P11229); test: as above
rat M4 = rat M4 (Rattus norvegicus, UniProt P08485); test: as above
human M3 = human M3 (Homo sapiens, UniProt P20309); test: as above
rat M2 = rat M2 (Rattus norvegicus, UniProt P10980); test: as above
cyno M4 = cyno M4 (Macaca fascicularis, UniProt G7PQB4); test: as above
rat M3 = rat M3 (Rattus norvegicus, UniProt P08483); test: as above
cyno M2 = cyno M2 (Macaca fascicularis, UniProt G7P0W8); test: as above
minipig M2 = minipig M2 (Sus scrofa, UniProt P06199); test: as above
human M5 = human M5 (Homo sapiens, UniProt P08912); test: as above
[3] = target: aldehyde oxidase (AO), monkey liver S9 (Macaca fascicularis, UniProt Q5FB27); test: Aldehyde oxidase involvement, liver S9
[4] = target: aldehyde oxidase (AO), human liver S9 (Homo sapiens, UniProt Q06278); test: Aldehyde oxidase involvement, liver S9
Kinetic solubility = conditions: PBS buffer

In the case of Cc1nnc2sc3c(NCc4ccc(C(C)(C)O)cc4)ncnc3c2c1C, the IC50 (cytochrome P450 enzymes) is reported as ≥ 15000 nM, the “% compound remaining” value ([1]; dog intestinal microsomes) is reported as > 90% and the “% compound remaining” value ([1]; human intestinal microsomes) is reported as > 90%. The “% compound remaining” value ([1]; monkey intestinal microsomes) was > 90%, the “% compound remaining” value ([1]; rat intestinal microsomes) was > 90% and the “% Total Peak Area (MS)” value ([2]; dog hepatocytes) was 71.6%. For the same molecule, the “% Total Peak Area (MS)” value ([2]; human hepatocytes) was 59.1%, the “% Total Peak Area (MS)” value ([2]; minipig hepatocytes) was 18.8% and the “% Total Peak Area (MS)” value ([2]; monkey hepatocytes) was 23.5%. For the same molecule, the “% Total Peak Area (MS)” value ([2]; rat hepatocytes) was 41.4%, the “decrease in formation of metabolite, CYP2C8” value (CYP2C8; highest concentration) was 39% and the IC50 (CYP2C8; read-out: CYP2C8 IC50, direct inhibition) was > 15000 nM. The IC50 (CYP2D6) was > 15000 nM, the IC50 (CYP2B6) was > 15000 nM and the IC50 (CYP3A4; read-out: CYP3A4-M IC50, direct inhibition) was > 15000 nM. For the same molecule, the IC50 (CYP3A4; read-out: CYP3A4-T IC50, direct inhibition) was > 15000 nM, the IC50 (CYP3A4; read-out: CYP3A4 IC50, substrate not named) was > 15000 nM and the “decrease in formation of metabolite, CYP2C9” value (CYP2C9; highest concentration) was 49%. For the same molecule, the IC50 (CYP2C9; read-out: CYP2C9 IC50, direct inhibition) was > 15000 nM, the IC50 (CYP1A2) was > 15000 nM and the “decrease in formation of metabolite, CYP2C19” value (CYP2C19; highest concentration) was 35%. The IC50 (CYP2C19; read-out: CYP2C19 IC50, direct inhibition) was > 15000 nM, the activity (dog M3) was “inactive” and the activity (rat M1) was “inactive”. The “%AChMax” value (human M2) was 49 % AChMax, the EC50 (human M2) was 2820 nM and the pEC50 (human M2) was 5.5. The “%AChMax” value (minipig M4) was 72 % AChMax, the EC50 (minipig M4) was 34.3 nM and the pEC50 (minipig M4) was 7.46. For the same molecule, the activity (rat M5) was “inactive”, the “%AChMax” value (dog M2) was 38 % AChMax and the EC50 (dog M2) was 2790 nM. For the same molecule, the pEC50 (dog M2) was 5.55, the “%AChMax” value (dog M4) was 72 % AChMax and the EC50 (dog M4) was 36.3 nM. The pEC50 (dog M4) was 7.44, the activity (human M1) was “inactive” and the “%AChMax” value (rat M4) was 81 % AChMax. For the same molecule, the activity (human M3) was “inactive”, the “%AChMax” value (rat M2) was 53 % AChMax and the EC50 (rat M2) was 2410 nM. The pEC50 (rat M2) was 5.62, the “%AChMax” value (cyno M4) was 89 % AChMax and the EC50 (cyno M4) was 63.5 nM. For the same molecule, the pEC50 (cyno M4) was 7.20, the activity (rat M3) was “inactive” and the “%AChMax” value (cyno M2) was 34 % AChMax. The EC50 (cyno M2) was 3000 nM, the pEC50 (cyno M2) was 5.52 and the “%AChMax” value (minipig M2) was 43 % AChMax. The EC50 (minipig M2) was 3000 nM, the pEC50 (minipig M2) was 5.52 and the activity (human M5) was “inactive”. The “turnover after 90 min” value ([3]; monkey liver S9) was “no turnover was observed”, the “% test compound remaining” value ([3]; monkey liver S9, 1 µM, 90 min) was 100% and the “turnover after 90 min” value ([4]; human liver S9) was “no turnover was observed”. For the same molecule, the “% test compound remaining” value ([4]; human liver S9, 1 µM, 90 min) was 100% and the kinetic solubility (Kinetic solubility) was 15 µM (≈ 5.69 µg/mL).
